Source: patent US20090118274A1, “MONOCYCLIC AMINOPROPYL TETRAHYDRO-PYRAZOLO-PYRIDINE MODULATORS OF CATHEPSIN S” (priority 2007, published 2009)

Amino acid sequences for entries named in this document (tags omitted). Residues count along the entry.
UniProt P25774, 115-331: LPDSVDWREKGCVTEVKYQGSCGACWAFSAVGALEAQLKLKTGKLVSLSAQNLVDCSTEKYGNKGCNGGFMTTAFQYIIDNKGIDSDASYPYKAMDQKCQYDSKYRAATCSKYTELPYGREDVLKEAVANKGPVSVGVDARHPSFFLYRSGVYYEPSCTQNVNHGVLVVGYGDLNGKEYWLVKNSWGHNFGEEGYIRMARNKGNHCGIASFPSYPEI

Molecular target: T1, Recombinant human cathepsin S (CatS) (Homo sapiens, UniProt P25774)
T1 construct: made in house
Assay: Recombinant human cathepsin S (CatS) fluorogenic substrate inhibition assay
Assay type: biochemical
Protocol: Recombinant human cathepsin S (CatS) was expressed in the baculovirus system and purified in one step with a thiopropyl-sepharose column. […] The assay is run in 150 mM sodium acetate pH 5.0 containing 1.5 mM DTT and 150 mM NaCl. […] Measurements are taken every min for 20 min. The rate is calculated from the slope of the increase in fluorescence and the percent inhibition is calculated from this.

## CS(=O)(=O)N1CCc2c(c(-c3ccc(C(F)(F)F)c(CNC(=O)Oc4ccc(Cl)cc4)c3)nn2CC(O)CN2CCCC2)C1 (stereo not shown) [Example 163, {5-[1-(2-Hydroxy-3-pyrrolidin-1-yl-propyl)-5-methanesulfonyl-4,5,6,7-tetrahydro-1H-pyrazolo[4,3-c]pyridin-3-yl]-2-trifluoromethyl-benzyl}-carbamic acid 4-chloro-phenyl ester]
  IC50: 380 nM
